# Laboratory results: PubChem BioAssay AID651704 (Broad Institute, 2012)
# Amino acid sequences for entries named in this document (tags omitted). A change or cut given only in a name is not applied to a line headed by its entry.
# UniProt P42568: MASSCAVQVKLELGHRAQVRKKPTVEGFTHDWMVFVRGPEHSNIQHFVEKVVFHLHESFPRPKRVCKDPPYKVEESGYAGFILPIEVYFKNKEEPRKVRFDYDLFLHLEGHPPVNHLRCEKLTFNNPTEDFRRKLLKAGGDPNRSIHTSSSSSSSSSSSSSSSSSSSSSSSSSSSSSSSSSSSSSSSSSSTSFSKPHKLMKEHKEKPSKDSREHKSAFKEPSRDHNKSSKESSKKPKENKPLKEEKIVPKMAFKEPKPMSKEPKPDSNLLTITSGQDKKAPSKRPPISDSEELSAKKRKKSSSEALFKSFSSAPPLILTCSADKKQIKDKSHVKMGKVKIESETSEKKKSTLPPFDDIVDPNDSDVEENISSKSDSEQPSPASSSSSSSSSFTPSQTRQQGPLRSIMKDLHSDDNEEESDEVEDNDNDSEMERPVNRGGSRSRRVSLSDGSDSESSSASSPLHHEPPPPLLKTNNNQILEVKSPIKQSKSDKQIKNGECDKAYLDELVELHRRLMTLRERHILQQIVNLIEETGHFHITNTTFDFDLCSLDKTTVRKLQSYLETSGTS
# The list shows a part of the results, in another mix than the full data. The source made the active and inactive calls.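 How the source made its calls: active means every replicate reaching a set inhibition limit, whatever the replicate mean (cut at about 25% in these data); inconclusive means mean inhibition reaches that limit but some replicates miss it; inactive means the rest.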
# Molecular target: Protein AF-9 (Homo sapiens) (UniProt P42568)
# Assay: inhibitors of AF4 peptide binding to AF9, primary screen, biochemical, AlphaScreen, biotin-AF4 peptide, FLAG-AF9, single point (AID 651704);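 further: 0% = plate neutral control median and 100% = total signal loss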
# Settings: at 10 µM, active compounds read high
row,SMILES,inhibition
1,C[N+]1=C2C=CC=CC=C2SC12C([N+](=O)[O-])=CC([N+](=O)[O-])=C[C-]2[N+](=O)[O-] (stereo unspecified),active: 27.2%
